Biological target: Synaptic vesicular amine transporter (Rattus norvegicus, UniProt Q01827)
Experiment: Displacement of [3H]dihydrotetrabenazine from vesicular monoamine transporter-2 in rat brain synaptosome
Type: tissue-based

Amino acid sequences for entries named in this document (tags omitted).
UniProt Q01827, whole entry: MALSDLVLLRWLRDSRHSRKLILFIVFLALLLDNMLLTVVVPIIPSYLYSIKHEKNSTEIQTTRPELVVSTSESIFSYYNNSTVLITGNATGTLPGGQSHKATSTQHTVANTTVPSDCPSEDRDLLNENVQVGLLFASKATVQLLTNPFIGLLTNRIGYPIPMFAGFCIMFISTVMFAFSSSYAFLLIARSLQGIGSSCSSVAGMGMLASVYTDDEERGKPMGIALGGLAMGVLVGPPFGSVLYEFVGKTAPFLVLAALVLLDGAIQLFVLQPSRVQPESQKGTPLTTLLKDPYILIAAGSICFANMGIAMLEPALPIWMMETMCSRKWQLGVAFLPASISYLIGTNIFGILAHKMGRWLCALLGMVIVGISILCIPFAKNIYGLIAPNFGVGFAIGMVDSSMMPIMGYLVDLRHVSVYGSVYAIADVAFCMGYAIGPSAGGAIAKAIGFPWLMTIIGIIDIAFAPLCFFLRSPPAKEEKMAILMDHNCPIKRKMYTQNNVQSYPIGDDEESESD

- Ki: 16.1 µM
SMILES: CN1[C@@H](CCc2ccccc2)CCC[C@H]1c1ccccc1
